Where a name gives a salt, the structure may show the parent alone.
biological target: Bcl-2 protein (Homo sapiens (Human), UniProt P10415); assay: Inhibition of Bcl-2 by the fluorescence polarisation technique; assay type: binding; settings: fluorescence polarisation test; concentration that inhibits fluorescence polarisation by 50%; read-out: IC50 (nM) Bcl-2 FP
Protocol: The fluorescence polarisation tests were carried out on microplates (384 wells). […] After incubation for 2 hours, the fluorescence polarisation is measured.

Amino acid sequences for entries named in this document (tags omitted).
UniProt P10415, whole entry: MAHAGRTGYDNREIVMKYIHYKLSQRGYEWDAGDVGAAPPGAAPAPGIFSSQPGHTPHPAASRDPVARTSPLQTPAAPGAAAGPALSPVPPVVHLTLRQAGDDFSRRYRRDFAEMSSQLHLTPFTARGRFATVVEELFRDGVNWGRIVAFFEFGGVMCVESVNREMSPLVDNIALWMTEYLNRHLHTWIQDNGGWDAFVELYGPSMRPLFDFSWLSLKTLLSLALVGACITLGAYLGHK

SMILES | IC50 [nM]
CCOc1ccc(C(=O)N2Cc3ccccc3C[C@H]2CN2CCOCC2)c(-c2cc(C(=O)N(c3ccc(O)cc3)c3ccc4c(ccn4C)c3)c3n2CCCC3)c1 [Example 36, 3-{5-Ethoxy-2-[((3S)-3-(4-morpholinylmethyl)-3,4-dihydro-2(1H)-isoquinolinyl)carbonyl]phenyl}-N-(4-hydroxyphenyl)-N-(1-methyl-H-indol-5-yl)-5,6,7,8-tetrahydro-1-indolizine carboxamide hydrochloride] | 43
Cl.[2H]C1([2H])Oc2cc(C(=O)N3Cc4ccccc4C[C@H]3CN3CCOCC3)c(-c3cc(C(=O)N(c4ccc(O)cc4)c4ccc5c(ccn5C)c4)c4n3CCCC4)cc2O1 [Example 37, N-(4-Hydroxyphenyl)-N-(1-methyl-1H-indol-5-yl)-3-{2,2-dideuterio-6-[((3S)-3-(4-morpholinylmethyl)-3,4-dihydro-2(1H)-isoquinolinyl)carbonyl]-1,3-benzodioxol-5-yl}-5,6,7,8-tetrahydro-1-indolizine carboxamide hydrochloride] | 19
Cl.[2H]C1([2H])Oc2cc(C(=O)N3Cc4ccccc4C[C@H]3CN3CCOCC3)c(-c3cc(C(=O)N(c4ccccc4)c4ccc(O)cc4)c4n3CCCC4)cc2O1 [Example 38, N-(4-Hydroxyphenyl)-3-{2,2-dideuterio-6-[((3S)-3-(4-morpholinylmethyl)-3,4-dihydro-2(1H)-isoquinolinyl)carbonyl]-1,3-benzodioxol-5-yl}-N-phenyl-5,6,7,8-tetrahydro-1-indolizine carboxamide hydrochloride] | 21

Now those with a lower IC50, led by results:

IC50 [nM] | SMILES
18 | O=C(c1cc(-c2cc3c(cc2C(=O)N2Cc4ccccc4C[C@H]2CN2CCOCC2)OCO3)n2c1CCCC2)N(c1ccccc1)c1ccc(O)cc1 [Example 1, N-(4-Hydroxyphenyl)-3-{6-[((3S)-3-(4-morpholinylmethyl)-3,4-dihydro-2(1H)-isoquinolinyl)carbonyl]-1,3-benzdioxol-5-yl}-N-phenyl-5,6,7,8-tetrahydro-1-indolizine carboxamide hydrochloride]
18 | Cn1ccc2cc(N(C(=O)c3cc(-c4cc5c(cc4C(=O)N4Cc6ccccc6C[C@H]4CN4CCOCC4)OCO5)n4c3CCCC4)c3ccc(O)cc3)ccc21 [Example 10, N-[4-(Hydroxy)phenyl]-N-(1-methyl-1H-indol-5-yl)-3-{6-[((3S)-3-(4-morpholinylmethyl)-3,4-dihydro-2(1H)-isoquinolinyl)carbonyl]-1,3-benzodioxol-5-yl}-5,6,7,8-tetrahydro-1-indolizine carboxamide hydrochloride]
18 | Cn1ccc2cc(N(C(=O)c3cc(-c4cc5c(cc4C(=O)N4Cc6ccccc6C[C@H]4CN4CCOCC4)OCO5)n4c3CCCCC4)c3ccc(O)cc3)ccc21 [Example 84, hydrochloride]
